Measured values from PMC11079024, “Identification of a family of species-selective complex I inhibitors as potential anthelmintics” (Nature Communications, 2024).

System: anthelmintic/nematicide-resistant C. elegans mutant strains
Settings: for dose response, relative development/viability: acr-23 (ok2804)

Q: What does the source list for `CC(C)Cc1ccc(C(C)c2nc3ccccc3n2C)cc1` (stereo not shown) [NPD8790]?
A: C. elegans L1 relative development & viability (score 0-1 relative to DMSO controls) (1 µM, strain ECA1080, E198A (ben-1)): 1.000; C. elegans L1 relative development & viability (score 0-1 relative to DMSO controls) (2 µM, strain CB3474, G104D (ben-1)): 1.000; C. elegans L1 relative development & viability (score 0-1 relative to DMSO controls) (2 µM, strain ECA917, F200Y (ben-1)): 1.000; C. elegans L1 relative development & viability (score 0-1 relative to DMSO controls) (2 µM, strain ECA1075, F167Y (ben-1)): 1.000; C. elegans L1 relative development & viability (score 0-1 relative to DMSO controls) (2 µM, strain ECA1080, E198A (ben-1)): 1.000; C. elegans L1 relative development & viability (score 0-1 relative to DMSO controls) (3.9 µM, strain CB3474, G104D (ben-1)): 1.000; C. elegans L1 relative development & viability (score 0-1 relative to DMSO controls) (3.9 µM, strain ECA917, F200Y (ben-1)): 1.000; C. elegans L1 relative development & viability (score 0-1 relative to DMSO controls) (3.9 µM, strain ECA1075, F167Y (ben-1)): 0.969; C. elegans L1 relative development & viability (score 0-1 relative to DMSO controls) (3.9 µM, strain ECA1080, E198A (ben-1)): 1.000; C. elegans L1 relative development & viability (score 0-1 relative to DMSO controls) (7.8 µM, strain CB3474, G104D (ben-1)): 1.000; C. elegans L1 relative development & viability (score 0-1 relative to DMSO controls) (7.8 µM, strain ECA917, F200Y (ben-1)): 1.000; C. elegans L1 relative development & viability (score 0-1 relative to DMSO controls) (7.8 µM, strain ECA1075, F167Y (ben-1)): 1.000; C. elegans L1 relative development & viability (score 0-1 relative to DMSO controls) (7.8 µM, strain ECA1080, E198A (ben-1)): 1.000; C. elegans L1 relative development & viability (score 0-1 relative to DMSO controls) (15.6 µM, strain CB3474, G104D (ben-1)): 1.000; C. elegans L1 relative development & viability (score 0-1 relative to DMSO controls) (15.6 µM, strain ECA917, F200Y (ben-1)): 1.000; C. elegans L1 relative development & viability (score 0-1 relative to DMSO controls) (15.6 µM, strain ECA1075, F167Y (ben-1)): 0.915; C. elegans L1 relative development & viability (score 0-1 relative to DMSO controls) (15.6 µM, strain ECA1080, E198A (ben-1)): 1.000; C. elegans L1 relative development & viability (score 0-1 relative to DMSO controls) (31.3 µM, strain CB3474, G104D (ben-1)): 1.000; C. elegans L1 relative development & viability (score 0-1 relative to DMSO controls) (31.3 µM, strain ECA917, F200Y (ben-1)): 1.000; C. elegans L1 relative development & viability (score 0-1 relative to DMSO controls) (31.3 µM, strain ECA1075, F167Y (ben-1)): 0.959; C. elegans L1 relative development & viability (score 0-1 relative to DMSO controls) (31.3 µM, strain ECA1080, E198A (ben-1)): 1.000; C. elegans L1 relative development & viability (score 0-1 relative to DMSO controls) (62.5 µM, strain CB3474, G104D (ben-1)): 1.000; C. elegans L1 relative development & viability (score 0-1 relative to DMSO controls) (62.5 µM, strain ECA917, F200Y (ben-1)): 1.000; C. elegans L1 relative development & viability (score 0-1 relative to DMSO controls) (62.5 µM, strain ECA1075, F167Y (ben-1)): 1.000; C. elegans L1 relative development & viability (score 0-1 relative to DMSO controls) (62.5 µM, strain ECA1080, E198A (ben-1)): 1.000; C. elegans L1 relative development & viability (score 0-1 relative to DMSO controls) (125 µM, strain CB3474, G104D (ben-1)): 1.000; C. elegans L1 relative development & viability (score 0-1 relative to DMSO controls) (125 µM, strain ECA917, F200Y (ben-1)): 1.000; C. elegans L1 relative development & viability (score 0-1 relative to DMSO controls) (125 µM, strain ECA1075, F167Y (ben-1)): 1.000; C. elegans L1 relative development & viability (score 0-1 relative to DMSO controls) (125 µM, strain ECA1080, E198A (ben-1)): 1.000; C. elegans L1 relative development & viability (score 0-1 relative to DMSO controls) (250 µM, strain CB3474, G104D (ben-1)): 1.000; C. elegans L1 relative development & viability (score 0-1 relative to DMSO controls) (250 µM, strain ECA917, F200Y (ben-1)): 1.000; C. elegans L1 relative development & viability (score 0-1 relative to DMSO controls) (250 µM, strain ECA1075, F167Y (ben-1)): 0.968; C. elegans L1 relative development & viability (score 0-1 relative to DMSO controls) (250 µM, strain ECA1080, E198A (ben-1)): 1.000; C. elegans L1 relative development & viability (score 0-1 relative to DMSO controls) (500 µM, strain CB3474, G104D (ben-1)): 0.616; C. elegans L1 relative development & viability (score 0-1 relative to DMSO controls) (500 µM, strain ECA917, F200Y (ben-1)): 0.616; C. elegans L1 relative development & viability (score 0-1 relative to DMSO controls) (500 µM, strain ECA1075, F167Y (ben-1)): 0.402; C. elegans L1 relative development & viability (score 0-1 relative to DMSO controls) (500 µM, strain ECA1080, E198A (ben-1)): 0.522; C. elegans L1 relative development & viability (CB3474 G104D (ben-1), 1 µM, score 0-1 relative to DMSO, values >1 set to 1): 1.000; C. elegans L1 relative development & viability (CB3474 G104D (ben-1), 2 µM, score 0-1 relative to DMSO, values >1 set to 1): 1.000; C. elegans L1 relative development & viability (CB3474 G104D (ben-1), 3.9 µM, score 0-1 relative to DMSO, values >1 set to 1): 1.000; C. elegans L1 relative development & viability (CB3474 G104D (ben-1), 7.8 µM, score 0-1 relative to DMSO, values >1 set to 1): 1.000; C. elegans L1 relative development & viability (CB3474 G104D (ben-1), 15.6 µM, score 0-1 relative to DMSO, values >1 set to 1): 1.000; C. elegans L1 relative development & viability (CB3474 G104D (ben-1), 31.3 µM, score 0-1 relative to DMSO, values >1 set to 1): 1.000; C. elegans L1 relative development & viability (CB3474 G104D (ben-1), 62.5 µM, score 0-1 relative to DMSO, values >1 set to 1): 1.000; C. elegans L1 relative development & viability (CB3474 G104D (ben-1), 125 µM, score 0-1 relative to DMSO, values >1 set to 1): 1.000; C. elegans L1 relative development & viability (CB3474 G104D (ben-1), 250 µM, score 0-1 relative to DMSO, values >1 set to 1): 1.000; C. elegans L1 relative development & viability (CB3474 G104D (ben-1), 500 µM, […]): 0.616; C. elegans L1 relative development & viability (ECA917 F200Y (ben-1), 1 µM, score 0-1 relative to DMSO, values >1 set to 1): 1.000; C. elegans L1 relative development & viability (ECA917 F200Y (ben-1), 2 µM, score 0-1 relative to DMSO, values >1 set to 1): 1.000; C. elegans L1 relative development & viability (ECA917 F200Y (ben-1), 3.9 µM, score 0-1 relative to DMSO, values >1 set to 1): 1.000; C. elegans L1 relative development & viability (ECA917 F200Y (ben-1), 7.8 µM, score 0-1 relative to DMSO, values >1 set to 1): 1.000; C. elegans L1 relative development & viability (ECA917 F200Y (ben-1), 15.6 µM, score 0-1 relative to DMSO, values >1 set to 1): 1.000; C. elegans L1 relative development & viability (ECA917 F200Y (ben-1), 31.3 µM, score 0-1 relative to DMSO, values >1 set to 1): 1.000; C. elegans L1 relative development & viability (ECA917 F200Y (ben-1), 62.5 µM, score 0-1 relative to DMSO, values >1 set to 1): 1.000; C. elegans L1 relative development & viability (ECA917 F200Y (ben-1), 125 µM, score 0-1 relative to DMSO, values >1 set to 1): 1.000; C. elegans L1 relative development & viability (ECA917 F200Y (ben-1), 250 µM, score 0-1 relative to DMSO, values >1 set to 1): 1.000; C. elegans L1 relative development & viability (ECA917 F200Y (ben-1), 500 µM, […]): 0.616; C. elegans L1 relative development & viability (ECA1075 F167Y (ben-1), 2 µM, score 0-1 relative to DMSO, values >1 set to 1): 1.000; C. elegans L1 relative development & viability (ECA1075 F167Y (ben-1), 3.9 µM, […]): 0.969; C. elegans L1 relative development & viability (ECA1075 F167Y (ben-1), 7.8 µM, score 0-1 relative to DMSO, values >1 set to 1): 1.000; C. elegans L1 relative development & viability (ECA1075 F167Y (ben-1), 15.6 µM, […]): 0.915; C. elegans L1 relative development & viability (ECA1075 F167Y (ben-1), 31.3 µM, […]): 0.959; C. elegans L1 relative development & viability (ECA1075 F167Y (ben-1), 62.5 µM, score 0-1 relative to DMSO, values >1 set to 1): 1.000; C. elegans L1 relative development & viability (ECA1075 F167Y (ben-1), 125 µM, score 0-1 relative to DMSO, values >1 set to 1): 1.000; C. elegans L1 relative development & viability (ECA1075 F167Y (ben-1), 250 µM, […]): 0.968; C. elegans L1 relative development & viability (ECA1075 F167Y (ben-1), 500 µM, […]): 0.402; C. elegans L1 relative development & viability (ECA1080 E198A (ben-1), 1 µM, score 0-1 relative to DMSO, values >1 set to 1): 1.000; C. elegans L1 relative development & viability (ECA1080 E198A (ben-1), 2 µM, score 0-1 relative to DMSO, values >1 set to 1): 1.000; C. elegans L1 relative development & viability (ECA1080 E198A (ben-1), 3.9 µM, score 0-1 relative to DMSO, values >1 set to 1): 1.000; C. elegans L1 relative development & viability (ECA1080 E198A (ben-1), 7.8 µM, score 0-1 relative to DMSO, values >1 set to 1): 1.000; C. elegans L1 relative development & viability (ECA1080 E198A (ben-1), 15.6 µM, score 0-1 relative to DMSO, values >1 set to 1): 1.000; C. elegans L1 relative development & viability (ECA1080 E198A (ben-1), 31.3 µM, score 0-1 relative to DMSO, values >1 set to 1): 1.000; C. elegans L1 relative development & viability (ECA1080 E198A (ben-1), 62.5 µM, score 0-1 relative to DMSO, values >1 set to 1): 1.000; C. elegans L1 relative development & viability (ECA1080 E198A (ben-1), 125 µM, score 0-1 relative to DMSO, values >1 set to 1): 1.000; C. elegans L1 relative development & viability (ECA1080 E198A (ben-1), 250 µM, score 0-1 relative to DMSO, values >1 set to 1): 1.000; C. elegans L1 relative development & viability (ECA1080 E198A (ben-1), 500 µM, […]): 0.522; dose response, relative development/viability (concentration 2, Mean of replicates): 0.942; dose response, relative development/viability (concentration 3.9, Mean of replicates): 0.863; dose response, relative development/viability (concentration 7.8, Mean of replicates): 0.969; dose response, relative development/viability (concentration 15.6, Mean of replicates): 0.964; dose response, relative development/viability (concentration 15.6, single biological replicates (Rep)): 1.000 and 0.854; dose response, relative development/viability (concentration 31.3, Mean of replicates): 0.855; dose response, relative development/viability (concentration 62.5, Mean of replicates): 0.866; dose response, relative development/viability (concentration 125, Mean of replicates): 0.954; dose response, relative development/viability (concentration 125, single biological replicates (Rep)): 1.000 and 0.926 and 0.889

Where “and” joins values, the source holds several entries; their conditions need not be identical. Equal values may be shown once. Read-outs that look alike come from different tables or passages of the source.
